{
  "source": "paper PMC12079163",
  "about": "(Drug Development Research, 2025)",
  "assay": "Solubility under the assay conditions",
  "type": "physicochemical",
  "conditions": "HDAC, BCL‐2 and cell assays; data not reliable, not reported",
  "text": "With these promising results in hand, we elected to expand our library of dual BCL‐2/HDAC inhibitors. […] Alongside this study, we attempted to enhance the HDAC1 inhibitory activity of BD‐4‐213 through targeting the enzyme's foot‐pocket (Melesina et al. [2021]; Moradei et al. [2007]). We proposed to do this by grafting on a thiophene (AMC‐4‐074) or a phenyl ring (AMC‐4‐075) to the aniline ring of the ortho‐aminoanilide of BD‐4‐213, as guided by the ZBG in compound 2 (Figure 1A).",
  "note": "“Also recorded” adds a separate entry of the source.",
  "data": [
    {"substance": "2‐((1H‐pyrrolo[2,3‐b]pyridin‐5‐yl)oxy)‐N‐((4‐((4‐((3‐amino‐[1,1′‐biphenyl]‐4‐yl)carbamoyl)benzyl)amino)‐3‐nitrophenyl)sulfonyl)‐4‐(4‐((4′‐chloro‐5,5‐dimethyl‐3,4,5,6‐tetrahydro‐[1,1′‐biphenyl]‐2‐yl)methyl)piperazin‐1‐yl)benzamide [AMC‐4‐075]", "values": [
      {"measurement": "solubility under the assay conditions", "result": "solubility proved problematic; also recorded: Limited solubility"}
    ]}
  ]
}
